Measurements from patent US20230137216A1, “Stabilization of Pharmaceutical Compositions Comprising Polysorbate” (LEK Pharmaceuticals d.d., priority 2020, published 2023).

Assay: Accelerated stability testing of PS80 HX2 (polysorbate content by mixed-mode chromatography with CAD)
Conditions: 0.02% w/v PS80 HX2, 20 mM histidine buffer salt, pH 6.5, 50° C., 1 month
Description: PS20 or PS80 obtained from different manufacturers (see Table 1) was dissolved in 20 mM aqueous buffer at pH 5.5 or 6.5 in a glass vial to a final concentration of 0.02% (w/v) polysorbate. The buffer salts used in the histidine buffers investigated were histidine chloride (HisCl) and various further histidine buffer salts (see below, all obtained from Sigma-Aldrich (now Merck KgaA)).
Degradation mechanisms of the polysorbates were explored using 20 mM imidazole chloride and 20 mM alanine chloride buffer salts. Also, HisCl buffer salt comprising solutions were prepared with the additional excipients of mannitol or trehalose (both Sigma-Aldrich) to determine the influence of sugars and their derivatives on polysorbate degradation. Finally, two different mAbs were used as the active agent that each contained 10 mg/mL mAb, 0.02% PS80 HX2 and 20 mM HisCl buffer salt at pH 6.5. The therapeutic protein solutions were provided by Lek d.d. (Mengeš, Slovenia). In all cases, the starting point samples were collected immediately and stored at −80° C. The vials were then placed into a 50° C. incubator for up to 2 months, with samples collected at 1 month and further samples in some cases at 2 months. All of these samples were stored at −80° C. for subsequent analysis.
The polysorbate contents were analysed and quantified using a method based on mixed-mode chromatography, as mixed anion exchange and reversed phase, combined with a charged aerosol detector (CAD). The external standard approach was used for quantification of the surfactants. Chromatographic analysis was carried out using the method of Hewitt et al. (Hewitt, D. et al. J. Chromatogr. A 1218, 2138-2145 (2011).
Analytes were separated using a Waters Oasis MAX column (30 μm particle size, 2.1 mm×20 mm), column temperature 30° C., flow rate 1 ml/min and a total run time of 10 min. The injection volume was 10 μL. Initial conditions were set at 90% solvent A (2% formic acid in purified water) and 10% solvent B (2% formic acid in isopropanol). Solvent B was increased to 20% in the first minute and held for 2.4 min. […]

Substance	degradation of polysorbate 80 HX2
histidine adipate	major to almost complete degradation
histidine aspartate	major to almost complete degradation
histidine glutamate	major to almost complete degradation
